Test results taken from paper PMC11203266, “Continuous evolution of compact protein degradation tags regulated by selective molecular glues” (Science (New York, N.Y.), 2024).

Sequences of proteins named here, by UniProt entry; tags and fusion partners are left off.
UniProt Q96SW2, whole entry: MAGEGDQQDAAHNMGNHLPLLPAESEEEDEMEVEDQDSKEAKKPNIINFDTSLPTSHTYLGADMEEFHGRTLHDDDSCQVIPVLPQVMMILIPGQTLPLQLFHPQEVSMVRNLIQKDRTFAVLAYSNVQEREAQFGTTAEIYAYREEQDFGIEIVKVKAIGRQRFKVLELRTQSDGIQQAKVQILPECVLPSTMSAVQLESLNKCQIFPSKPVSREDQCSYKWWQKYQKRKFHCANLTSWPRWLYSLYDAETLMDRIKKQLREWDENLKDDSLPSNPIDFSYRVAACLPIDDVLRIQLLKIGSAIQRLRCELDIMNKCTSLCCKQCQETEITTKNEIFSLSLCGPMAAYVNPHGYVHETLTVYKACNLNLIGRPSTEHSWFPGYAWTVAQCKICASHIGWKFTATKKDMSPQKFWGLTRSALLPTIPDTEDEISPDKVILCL
UniProt Q16531, whole entry partner: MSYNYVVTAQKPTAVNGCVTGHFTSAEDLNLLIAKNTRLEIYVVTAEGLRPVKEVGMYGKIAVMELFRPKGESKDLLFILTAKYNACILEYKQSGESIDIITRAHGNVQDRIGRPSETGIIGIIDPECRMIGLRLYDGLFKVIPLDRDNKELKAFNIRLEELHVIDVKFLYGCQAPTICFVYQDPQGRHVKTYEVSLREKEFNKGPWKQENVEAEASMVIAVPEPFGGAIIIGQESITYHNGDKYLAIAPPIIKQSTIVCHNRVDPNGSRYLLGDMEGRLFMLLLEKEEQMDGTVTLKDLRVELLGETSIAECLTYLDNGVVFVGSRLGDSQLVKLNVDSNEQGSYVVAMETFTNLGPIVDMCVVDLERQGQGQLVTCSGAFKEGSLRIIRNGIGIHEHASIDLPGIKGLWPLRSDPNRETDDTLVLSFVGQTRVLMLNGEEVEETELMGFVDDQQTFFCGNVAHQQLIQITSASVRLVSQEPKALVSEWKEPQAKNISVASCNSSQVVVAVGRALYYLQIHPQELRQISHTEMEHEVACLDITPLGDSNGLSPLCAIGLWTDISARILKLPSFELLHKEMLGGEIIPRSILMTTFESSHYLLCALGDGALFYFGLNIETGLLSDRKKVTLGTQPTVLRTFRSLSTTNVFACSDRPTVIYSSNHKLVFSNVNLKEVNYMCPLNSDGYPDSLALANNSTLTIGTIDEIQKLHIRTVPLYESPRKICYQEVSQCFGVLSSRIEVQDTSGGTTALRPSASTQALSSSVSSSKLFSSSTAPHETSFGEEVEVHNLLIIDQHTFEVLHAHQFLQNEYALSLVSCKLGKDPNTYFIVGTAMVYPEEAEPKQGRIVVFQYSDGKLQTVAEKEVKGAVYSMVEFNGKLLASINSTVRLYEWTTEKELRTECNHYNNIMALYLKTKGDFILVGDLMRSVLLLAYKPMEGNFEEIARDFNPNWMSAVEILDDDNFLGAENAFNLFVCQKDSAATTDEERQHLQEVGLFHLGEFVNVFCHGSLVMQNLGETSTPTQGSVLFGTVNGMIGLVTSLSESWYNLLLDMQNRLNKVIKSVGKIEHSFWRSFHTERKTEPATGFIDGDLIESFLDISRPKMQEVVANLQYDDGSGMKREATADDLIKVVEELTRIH

Molecular target: DDB1•CRBN (Homo sapiens, UniProt Q96SW2)
Experiment: Fluorescence polarization, thalidomide-Cy5 binding
Settings: direct binding, saturation one site model

Compound: C[N+]1=C(C=CC=CC=C2N(CCCCCC(=O)NCCCCNC(=O)COc3cccc4c3C(=O)N(C3CCC(=O)NC3=O)C4=O)c3ccccc3C2(C)C)C(C)(C)c2ccccc21 (stereo not shown)
- Kd: 431 nM
